Source: paper PMC9959258, “Discovery of Polyphenolic Natural Products as SARS-CoV-2 M^pro Inhibitors for COVID-19” (Pharmaceuticals, 2023)

Target: SARS-CoV-2 M^pro (Severe acute respiratory syndrome coronavirus 2, UniProt P0DTD1)
Test: biochemical
Conditions: FRET assay, 50 nM M^pro, 10 min preincubation

For `Cc1coc2c1C(=O)C(=O)c1c-2ccc2c(C)cccc12` [Tanshinone I], which IC50 is on record?
Its IC50 is > 10 µM.
